From article PMC5823874 come the findings set out here.

For the assay, the target named is iPLA2β (UniProt O60733). Description: fluorescent liposome activity assay.

Take calmodulin (from UniProt P0DP23): the Ki (commonly a measure of affinity in units of concentration, obtained from inhibition or displacement) was 23 nM.
